This note sets out measurements from US4399067A.

The conditions of this series: water.

As for `C[C@H](CC(=O)O)[C@@H]1NC(=O)[C@@H](CO)NC(=O)CNC(=O)[C@H](CC(=O)O)NC(=O)[C@@H](C)NC(=O)[C@H](CC(=O)O)NC(=O)[C@H](CCCNC(=O)OC(C)(C)C)NC(=O)CNC(=O)[C@@H](NC(=O)[C@H](CC(=O)O)NC(=O)[C@H](CC(N)=O)NC(=O)[C@@H](N)Cc2c[nH]c3ccccc23)[C@@H](C)OC(=O)[C@H](CC(=O)c2ccccc2N)NC1=O`, the Solubility entry is “soluble in water”.
